Data published in patent US10301354B2, “Antibacterial and fungicidal peptide in which lysine and tryptophan residues are repeated, and use thereof” (priority 2011, dated 2019).

Experiments:
E. coli = format: cell-based, Escherichia coli
From the text: (§1) To measure the antibacterial activity of the peptide prepared in Example 1, the present inventors measured MIC, the minimal concentration that can keep the strain without being divided. For the measurement of antibacterial activity, Gram-positive bacteria selected from the group consisting of Bacillus subtilis, Staphylococcus aureus and Listeria monocytogenes, Gram-negative bacteria selected from the group consisting of Escherichia coli, Psedomonas aeruginosa and Salmonella typhimurium, and antibiotic-tolerant strains selected from the group consisting of E. coli (E. coli CCARM 1229, 1238), Salmonella (S. typhimurium CCARM 8007, 8009, 8013) and Staphylococcus (S. aureus CCARM 3089, 3090, 3108, 3114, 3126) were used. After cultured in optimal media, the strains were diluted at the density of 2×10^5 cells/ml, which were then inoculated on microtitrate plates. The peptide synthesized in Example 1 and the positive control peptide (Melittin) were 2-fold diluted in sodium phosphate buffer and phosphate buffered saline (PBS) from 200 μM/well, which were added in the plate, followed by culture at 37° C. for 18˜24 hours. OD620 was measured with a microtitrate plate reader to determine MIC of each strain. The results are presented in Table 1 (the number in bracket indicates the one obtained from PBS).

E. coli CCARM 1229 = format: cell-based, Escherichia coli
From the text: as §1

S. aureus = format: cell-based, Staphylococcus aureus
From the text: as §1

P. aeruginosa = format: cell-based, Psedomonas aeruginosa
From the text: as §1

S. typhimurium = format: cell-based, Salmonella typhimurium
From the text: as §1

B. subtilis = format: cell-based, Bacillus subtilis
From the text: as §1

human erythrocytes = assay: Hemolytic activity (cytotoxicity); format: cell-based; settings: 200 μM peptide, 8% human erythrocytes in PBS, 37° C., 1 hour; 1% triton X-100 = 100%
Description: Particularly, human erythrocytes were diluted in phosphate buffered saline (PBS, pH 7.0) at the concentration of 8%, to which the peptide 2-fold diluted from 200 μM/well was added, followed by reaction at 37° C. for 1 hour. Centrifugation was performed at 1,000 g and the level of hemoglobin included in the supernatant was measured by measuring OD414. To examine hemolysis, 1% triton X-100 was added to human erythrocytes, followed by measuring absorbance of the supernatant. The hemolytic activity of 1% triton X-100 was regarded as 100%, with which hemolytic activity of each antibacterial peptide was compared. The result was presented by the numbers calculated by the following mathematical formula 1. % hemolysis=(absorbance A−absorbance B/absorbance A−absorbance B)×100 [Mathematical Formula 1]
In the above formula, absorbance A indicates the absorbance of the peptide solution measured at 414 nm, absorbance B indicates the absorbance of PBS measured at 414 nm, and absorbance C indicates the absorbance of 1% triton X-100 measured at 414 nm.

In the case of `CC[C@H](C)[C@H](NC(=O)CN)C(=O)NCC(=O)N[C@@H](C)C(=O)N[C@H](C(=O)N[C@@H](CC(C)C)C(=O)N[C@@H](CCCCN)C(=O)N[C@H](C(=O)N[C@@H](CC(C)C)C(=O)N[C@H](C(=O)N[C@H](C(=O)NCC(=O)N[C@@H](CC(C)C)C(=O)N1CCC[C@H]1C(=O)N[C@@H](C)C(=O)N[C@@H](CC(C)C)C(=O)N[C@H](C(=O)N[C@@H](CO)C(=O)N[C@@H](Cc1c[nH]c2ccccc12)C(=O)N[C@H](C(=O)N[C@@H](CCCCN)C(=O)N[C@@H](CCCNC(=N)N)C(=O)N[C@@H](CCCCN)C(=O)N[C@@H](CCCNC(=N)N)C(=O)N[C@@H](CCC(N)=O)C(=O)N[C@@H](CCC(N)=O)C(N)=O)[C@@H](C)CC)[C@@H](C)CC)[C@@H](C)O)[C@@H](C)O)C(C)C)C(C)C` [Melittin], the MIC (E. coli; PBS (number in bracket)) is reported as “(1.56) μM”, the MIC (E. coli; sodium phosphate buffer) is reported as 1.56 µM (≈ 4.44 µg/mL) and the MIC (E. coli CCARM 1229; PBS (number in bracket)) is reported as “(3.12) μM”. For the same molecule, the MIC (E. coli CCARM 1229; sodium phosphate buffer) was 3.12 µM (≈ 8.88 µg/mL), the MIC (S. aureus; PBS (number in bracket)) was “(1.56) μM” and the MIC (S. aureus; sodium phosphate buffer) was 1.56 µM (≈ 4.44 µg/mL). For the same molecule, the MIC (P. aeruginosa; PBS (number in bracket)) was “(3.12) μM”, the MIC (P. aeruginosa; sodium phosphate buffer) was 3.12 µM (≈ 8.88 µg/mL) and the MIC (S. typhimurium; PBS (number in bracket)) was “(0.39) μM”. For the same molecule, the MIC (S. typhimurium; sodium phosphate buffer) was 0.39 µM (≈ 1.11 µg/mL), the MIC (B. subtilis; PBS (number in bracket)) was “(3.12) μM” and the MIC (B. subtilis; sodium phosphate buffer) was 1.56 µM (≈ 4.44 µg/mL). For the same molecule, the “Hemolysis (hemolytic activity)” value (human erythrocytes) was 100%.

Values after ≈ are worked out from the molar mass of the structure shown. Read-outs that look alike come from different tables or passages of the source.
